For 81 compounds, Potency and re-replication activation results are on record in PubChem BioAssay AID624297 (National Center for Advancing Translational Sciences (NCATS), 2012).

Only a part is listed here, and it is no random draw. Inconclusive results are not listed. Entries that show only a call come without a potency. Activity calls are given as the source filed them. The call rests on the fitted dose curve; in most records, active means well fitted activation curve with a large enough effect; inconclusive means small, poorly fitted or top-dose-only effect; inactive means no such curve, though single readings can be large or run the other way.
Potency means the concentration at half of the fitted maximal effect.

This test is described as follows: A quantitative high throughput screen for small molecules that induce DNA re-replication in SW480 colon adenocarcinoma cells. Further: nearly all actives have a fitted effect of over 55% in size. The note with it: Hoechst DNA content imaging, 48 h; series mostly up to 46.1 µM.
`Cc1nc2ccc3ccccc3c2s1.O=[N+]([O-])c1cc([N+](=O)[O-])c(O)c([N+](=O)[O-])c1`: the Potency result was “inactive”.

On to `O=[N+]([O-])c1cc([N+](=O)[O-])c(-n2nnc3ccccc32)c([N+](=O)[O-])c1`, for which the Potency result is “inactive”.

Take `COc1ccccc1OP(C)(=O)Nc1c(C)cccc1C` (stereo unspecified): the Potency entry is “inactive”.

Regarding `CN1CCCCC1COC(=O)C1(O)c2ccccc2CCc2ccccc21` (stereo unspecified), the Potency entry was “inactive”.

As for `CP(=O)(Nc1ccc(SC(F)(F)F)cc1)Oc1ccccc1` (stereo unspecified), the Potency result is “inactive”.

Take `CCCOc1ccc(NP(C)(=O)Oc2ccc(Cl)cc2)cc1` (stereo unspecified): the Potency entry is “inactive”.

Take `O=[N+]([O-])c1cc([N+](=O)[O-])c(Nc2nnnn2CCO)c([N+](=O)[O-])c1`: the Potency result is “inactive”.

For the compound `CC1CCOC(=O)C=CC=CC(=O)OC2CC3OC4C5OC5(C)CCC4(COC(=O)C1O)C2(C)C31CO1` (stereo unspecified), the Potency was active: 0.0651 µM.

For `O=[N+]([O-])OCC(CO[N+](=O)[O-])(CO[N+](=O)[O-])CO[N+](=O)[O-]`, the Potency entry is “inactive”.

`CC1=NCCc2c1[nH]c1ccccc21.O=[N+]([O-])c1cc([N+](=O)[O-])c(O)c([N+](=O)[O-])c1`: the Potency result is “inactive”.

Turning to `O=[N+]([O-])c1cccc([N+](=O)[O-])c1`, the Potency entry was “inactive”.

As for `CP(=O)(Nc1cccc(Br)c1)Oc1ccccc1` (stereo unspecified), the Potency entry was “inactive”.

Turning to `Cc1cc(C)cc(OP(C)(=O)Nc2ccccn2)c1` (stereo unspecified), the Potency entry is “inactive”.

For `Cc1ccc(C)c(NP(C)(=O)Oc2ccccc2)c1` (stereo unspecified), the Potency result was “inactive”.

`COc1ccccc1OP(C)(=O)Nc1cccc(Br)c1` (stereo unspecified): the Potency entry is “inactive”.

Turning to `Cc1cc(C)cc(OP(C)(=O)Nc2ccc(C)cc2C)c1` (stereo unspecified), the Potency result was “inactive”.

Take `O=[N+]([O-])[O-].[NH4+]`: the Potency entry is “inactive”.

`CCN(CC)CCCOC(=O)C(O)(c1ccccc1)c1ccccc1`: the Potency result was “inactive”.

Turning to `CCOC(=O)c1ccc(NP(C)(=O)Oc2ccccc2)cc1` (stereo unspecified), the Potency entry is “inactive”.

Turning to `COc1ccccc1OP(C)(=O)Nc1ccc(C)cc1` (stereo unspecified), the Potency result was “inactive”.

For the compound `Cc1ccc(NP(C)(=O)Oc2ccccc2)c(C)c1` (stereo unspecified), the Potency entry is “inactive”.

For `COc1ccc(OP(C)(=O)Nc2cccc(F)c2)cc1` (stereo unspecified), the Potency result was “inactive”.

As to `Cc1cc(C)cc(OP(C)(N)=O)c1` (stereo unspecified), the Potency entry was “inactive”.

Take `Cc1cccc(C)c1OP(C)(N)=O` (stereo unspecified): the Potency entry was “inactive”.

`CP(=S)(Nn1cnnc1)Oc1ccccc1` (stereo unspecified): the Potency entry was “inactive”.

For `COc1ccccc1OP(C)(=O)Nc1ccccc1` (stereo unspecified), the Potency result is “inactive”.

As to `CP(=O)(Nc1ccccc1Br)Oc1ccccc1` (stereo unspecified), the Potency result is “inactive”.

As to `CCOP(C)(=S)SCC(=O)NC(C)C(=O)O` (stereo unspecified), the Potency entry is “inactive”.

For the compound `CCOC(=O)c1ccc(NP(C)(=O)Oc2ccc(OC)cc2)cc1` (stereo unspecified), the Potency entry was “inactive”.

For `O=[N+]([O-])c1cc([N+](=O)[O-])c(O)c([N+](=O)[O-])c1.c1ccc(Oc2ccncc2)cc1`, the Potency result is “inactive”.

Regarding `CN(C)CCS`, the Potency result was “inactive”.

Regarding `CP(=O)(Nc1ccccn1)Oc1ccc(Cl)cc1` (stereo unspecified), the Potency entry was “inactive”.

As to `Cc1cccc(C)c1OP(C)(=O)Nc1ccc(SC(F)(F)F)cc1` (stereo unspecified), the Potency entry was “inactive”.

Consider `CP(=O)(Nc1ccc(SC(F)(F)F)cc1)Oc1ccc(Cl)cc1` (stereo unspecified), for which the Potency entry is “inactive”.

Consider `CP(=O)(Oc1ccccc1)OC(c1ccccc1)C(F)(F)F` (stereo unspecified), for which the Potency entry was “inactive”.

On to `CCc1ccc(OP(C)(=O)N2CCN(c3ccc([N+](=O)[O-])cc3)CC2)cc1` (stereo unspecified), for which the Potency entry is “inactive”.

As for `CP(=O)(NC(=O)Nc1ccccc1)Oc1ccccc1` (stereo unspecified), the Potency result is “inactive”.

As to `Cc1cc(C)cc(OP(C)(=O)Nc2ccc(SC(F)(F)F)cc2)c1` (stereo unspecified), the Potency result is “inactive”.

In the case of `CC(C)(C)c1ccc(OP(C)(=O)O)cc1`, the Potency entry was “inactive”.

Consider `COc1ccccc1OP(C)(=O)Nc1ccccc1Br` (stereo unspecified), for which the Potency result is “inactive”.

On to `N#[O+].[C-]#N.[C-]#N.[C-]#N.[C-]#N.[C-]#N.[Fe+2].[Na+].[Na+]`, for which the Potency result is “inactive”.

In the case of `CCN(CC)CC(O)COC(=O)C(O)(c1ccccc1)C1CCCCC1` (stereo unspecified), the Potency result was “inactive”.

In the case of `COc1ccc(OP(C)(=O)Nc2ccc(Br)cc2)cc1` (stereo unspecified), the Potency entry was “inactive”.

On to `CP(=O)(Oc1ccccc1)N1CCOC1=O` (stereo unspecified), for which the Potency entry is “inactive”.

For the compound `CCc1ccc(OP(C)(=O)Nc2cccnc2)cc1` (stereo unspecified), the Potency entry was “inactive”.

For `COc1ccccc1OP(C)(=O)Nc1c(C)n(C)n(-c2ccccc2)c1=O` (stereo unspecified), the Potency entry is “inactive”.

For the compound `OCCSCCO`, the Potency entry is “inactive”.

Consider `O=C(OCCCN1CCCC1)C(O)(c1ccccc1)C1CCCCC1` (stereo unspecified), for which the re-replication activation was inactive: -0.528% [at 9.22 µM].

As to `C/C1=C2N=C(/C=C3N=C(/C(C)=C4\[N-][C@@](C)([C@H]5N=C1[C@@](C)(CCC(=O)NC[C@H](C)OP(=O)([O-])O[C@@H]1[C@H](O)[C@H](n6cnc7cc(C)c(C)cc76)O[C@@H]1CO)[C@@H]5CC(N)=O)[C@](C)(CC(N)=O)[C@H]4CCC(N)=O)[C@@](C)(CC(N)=O)[C@@H]\3CCC(N)=O)C(C)(C)[C@@H]/2CCC(N)=O.[C-]#N.[Co+3]`, the Potency result is “inactive”.

For the compound `CC(C)OP(=O)(F)OC(C)C`, the Potency entry was “inactive”.

Turning to `Nc1ccc2c(ccc3cccnc32)n1.O=[N+]([O-])c1cc([N+](=O)[O-])c(O)c([N+](=O)[O-])c1`, the Potency result is “inactive”.

As for `CP(=O)(OC12CC3CC(CC(C3)C1)C2)OC12CC3CC(CC(C3)C1)C2`, the Potency entry was “inactive”.

As to `CCOC(=O)c1ccc(NP(C)(=O)Oc2ccc(Cl)cc2)cc1` (stereo unspecified), the Potency entry was “inactive”.

As for `CP(=O)(OCCOc1ccccc1)OCCOc1ccccc1`, the Potency result was “inactive”.

As to `CP(=O)(Nc1ccc(Cl)cc1Cl)Oc1ccccc1` (stereo unspecified), the Potency result is “inactive”.

As to `Cc1cc(C)cc(OP(C)(=O)Nc2cccc(C(F)(F)F)c2)c1` (stereo unspecified), the Potency result is “inactive”.

Consider `COc1ccc(OP(C)(=O)Nc2ccccc2Br)cc1` (stereo unspecified), for which the Potency entry is “inactive”.

On to `COc1ccccc1OP(C)(=O)Nc1ccc(C)c(C)c1` (stereo unspecified), for which the Potency result is “inactive”.

Take `Cc1c(NP(C)(=O)Oc2ccc(C(C)C)cc2)c(=O)n(-c2ccccc2)n1C` (stereo unspecified): the Potency entry was “inactive”.

Regarding `CCc1ccc(OP(C)(=O)O)cc1`, the Potency result is “inactive”.

On to `CP(=O)(Nc1ccccn1)Oc1ccccc1` (stereo unspecified), for which the Potency result is “inactive”.

Turning to `COc1ccccc1OP(C)(=O)Nc1ccc(C)cc1C` (stereo unspecified), the Potency result is “inactive”.

With `COc1ccccc1OP(C)(=O)Nc1ccc(Br)cc1` (stereo unspecified), the Potency result was “inactive”.

In the case of `CN(C)CCOC(=O)C(O)(c1ccccc1)C1CCCC1` (stereo unspecified), the Potency result was “inactive”.

For the compound `COc1ccc(OP(C)(=O)Nc2ccccn2)cc1` (stereo unspecified), the Potency result was “inactive”.

For the compound `O=C(OCCN1CCN(CCOCc2ccccc2)CC1)C(O)(c1ccccc1)c1ccccc1`, the Potency result is “inactive”.

Take `CC(C)c1ccc(OP(C)(=O)Nc2ccc(SC(F)(F)F)cc2)cc1` (stereo unspecified): the Potency entry is “inactive”.

Take `CCN(CC)CCCOC(=O)C(O)(c1ccccc1)C1CCCCC1` (stereo unspecified): the Potency result was “inactive”.

Regarding `Cc1c([N+](=O)[O-])cc([N+](=O)[O-])c(Br)c1[N+](=O)[O-]`, the Potency entry was “inactive”.

Regarding `CCCCCOc1ccc(NP(C)(=O)Oc2ccc(Cl)cc2Cl)cc1` (stereo unspecified), the Potency result is “inactive”.

As to `CP(=O)(Nc1ccccc1)Oc1ccc(F)cc1` (stereo unspecified), the Potency result is “inactive”.

Consider `COc1ccc(OP(C)(=O)Nc2ccc(SC(F)(F)F)cc2)cc1` (stereo unspecified), for which the Potency result was “inactive”.

As to `CCOC(=O)c1ccc(NP(C)(=O)Oc2ccc(F)cc2)cc1` (stereo unspecified), the Potency is active: 6.51 µM.

`O=[N+]([O-])c1ccc(OP2(=O)COCCO2)cc1` (stereo unspecified): the Potency result was “inactive”.

Turning to `Cc1c(C(c2ccc3c(c2)OCO3)c2c(C)n(C)n(-c3ccccc3)c2=O)c(=O)n(-c2ccccc2)n1C.O=[N+]([O-])c1cc([N+](=O)[O-])c(O)c([N+](=O)[O-])c1`, the Potency result is “inactive”.

For `COc1ccc(OP(C)(=O)Nc2cccc(Br)c2)cc1` (stereo unspecified), the Potency entry is “inactive”.

Consider `CN(C)CCOC(=O)C(O)(c1ccccc1)C1CCCCC1` (stereo unspecified), for which the Potency result was “inactive”.

As for `CP(=O)(Nc1ccc2c(c1)OCCO2)Oc1ccccc1` (stereo unspecified), the Potency entry is “inactive”.

As for `Cc1ccccc1NP(C)(=O)Nc1ccccc1C`, the Potency result is “inactive”.

Turning to `CP(=O)(Nc1ccc(SC(F)(F)F)cc1)Oc1ccc(F)cc1` (stereo unspecified), the Potency result was “inactive”.

As to `CCOP(C)(=S)SCC(=O)NC(C)(CC)C(=O)O` (stereo unspecified), the Potency entry was “inactive”.
